Data from US20190358206A1, “TOPICAL FORMULATIONS OF BIARYL HETEROCYCLIC COMPOUNDS AND METHODS OF USE THEREOF” (Melinta Subsidiary Corp., priority 2016, published 2019).

Columns and labels:
[1] = tested on: B. thetaiotaomicron ATCC 29741; assay: microbe, parasite or virus in culture; format: cell-based; conditions: Bacteroides thetaiotaomicron, ATCC29741, read-out: MIC, Agar
[2] = tested on: B. thetaiotaomicron ATCC 29741; assay: microbe, parasite or virus in culture; format: cell-based; conditions: Bacteroides thetaiotaomicron, ATCC29741, read-out: MIC, Broth

| Compound | MIC [1] [µg/mL] | MIC [2] [µg/mL] |
| --- | --- | --- |
| CCC[C@@H]1C[C@@H](C(=O)N[C@@H]([C@H]2O[C@H](SC)[C@H](O)[C@@H](O)[C@H]2O)[C@H](C)Cl)N(C)C1 [Clindamycin, clindamycin] | 8 (≈ 18.8 µM) | 8 (≈ 18.8 µM) |
| CC(=O)NC[C@H]1CN(c2ccc(N3CCOCC3)c(F)c2)C(=O)O1 [Linezolid, linezolid] | 4 (≈ 11.9 µM) | 4 (≈ 11.9 µM) |

In brackets after ≈: the same amount, converted by molar mass. Read-outs that look alike come from different tables or passages of the source.
